From patent US20220185822A1, “SELECTIVE LIGANDS OF HUMAN CONSTITUTIVE ANDROSTANE RECEPTOR” (USTAV ORGANICKE CHEMIE A BIOCHEMIE AV CR, V.V.I., priority 2019, published 2022)

Experiment: Metabolic stability in human liver S9 fraction

Compound: NC(=O)c1cc(Cn2cc(-c3c(-c4ccc(Cl)cc4)nc4ccccn34)nn2)ccc1Cl [Example 110, 2-Chloro-5-((4-(2-(4-chlorophenyl)imidazo[1,2-a]pyridin-3-yl)-1H-1,2,3-triazol-1-yl)methyl)benzamide]
- half-life at 2 μM: 42 min
